Patent US20210009702A1 (TUSK THERAPEUTICS, published 2021)

How the values were obtained:
[1] = molecular target: T1, human CD25 expressed on cells (human, UniProt P01589 22-272); assay: flow cytometry on human in vitro differentiated Treg cells, Alexa Fluor 647 anti-human IgG secondary
T1 construct: Endogenous CD25 on human cell lines and primary cells; also called CD25 on human in vitro differentiated Treg cells; CD25 on SU-DHL-1 cells
T1 sequence: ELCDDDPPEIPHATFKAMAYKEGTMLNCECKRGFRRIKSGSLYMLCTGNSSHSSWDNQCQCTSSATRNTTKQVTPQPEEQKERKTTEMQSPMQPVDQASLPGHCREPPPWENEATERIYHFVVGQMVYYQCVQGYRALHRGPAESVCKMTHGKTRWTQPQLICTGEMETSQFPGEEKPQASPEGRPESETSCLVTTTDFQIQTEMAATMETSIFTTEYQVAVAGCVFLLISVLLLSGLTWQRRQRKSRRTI

[2] = molecular target: T2, recombinant human CD25 his tagged (human, UniProt P01589 22-240); assay: BLI (ForteBio Octet), rhCD25-His on Ni-NTA sensors, IgG in solution, avidity, 1:1 fit
T2 construct: also called rhCD25-his; not shown: His tag
T2 sequence: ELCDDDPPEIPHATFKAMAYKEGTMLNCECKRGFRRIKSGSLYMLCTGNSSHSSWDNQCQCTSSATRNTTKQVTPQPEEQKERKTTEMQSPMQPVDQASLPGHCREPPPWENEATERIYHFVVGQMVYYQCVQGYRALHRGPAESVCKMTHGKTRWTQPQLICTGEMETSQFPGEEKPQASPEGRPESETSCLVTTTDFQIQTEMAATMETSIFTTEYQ

EC50 (read off the curve) [1]: ~1 mg/L
Kd [2]: 1.56 nM
B1: aCD25-a-634 (antibody, V domains shown)
VH: QVQLVQSGAEVKKPGASVKVSCKASGYTFTGYYMHWVRQAPGQGLEWMGSINPNSGGTNYAQKFQGRVTMTRDTSISTAYMELSRLRSDDTAVYYCARDGLMDVWGQGTAVTVSS
VL: [about 100 residues not printed]PFTFGGGTKVEIK
notes: also called anti-human CD25 antibody; not shown: human IgG1 heavy chain constant region, […]; human kappa light chain constant region, […]
